# scFv variants of Ab-14 (light chain) against a SARS-CoV-2 spike peptide

Binding partner: SARS-CoV-2 spike HR2 peptide, sequence PDVDLGDISGINAS.

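The parent was found by panning a naive human phage display library on the peptide. This is the validation round: designs drawn from the data on random variants, tested in the same kind of assay. Group labels follow the data file (Ctrl: baseline library sampled from a position-specific scoring matrix, with some repeated check sequences; Rand: our label for a block that the file lists under HC and that is probably the random mutants of the ten best first-round binders; GP: Gaussian process model; HC: hill climbing; Gen: genetic algorithm; Gibbs: Gibbs sampling; a sequence that several methods proposed may carry one label only). Affinity was read by AlphaSeq, a pooled yeast mating assay with surface-displayed partners. Binding brings cells together so that they mate, and sequencing counts the barcode pairs among the diploids. Each replicate has its own calibration line, from reference interactions of the BCL2 family. Mating was done six times.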

Each scFv is VH, three GGGGS repeats, VL, as in the parent Ab-14, and differs from it in the CDRs of the light chain only.
VH: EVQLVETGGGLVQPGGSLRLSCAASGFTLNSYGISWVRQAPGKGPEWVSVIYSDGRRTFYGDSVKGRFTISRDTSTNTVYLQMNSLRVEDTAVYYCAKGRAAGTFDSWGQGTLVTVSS
VL: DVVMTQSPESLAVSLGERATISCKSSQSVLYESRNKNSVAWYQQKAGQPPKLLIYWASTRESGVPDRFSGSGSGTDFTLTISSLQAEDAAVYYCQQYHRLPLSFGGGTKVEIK

Positions count from residue 1 of the parent VL; Q27H puts H in place of Q. Variants here have at most six changes. The read-out is the apparent dissociation constant on a log10 scale (nM): the lower, the stronger. A mean of the replicates is given; it leaves out those without a signal. An entry "nd" has no value in the source: the pair was not observed among the diploids in any replicate. This suggests poor binding but is not conclusive.

changes	group	log10 Kd (nM), mean	seen in	control signals
Q27H V29P N35Q W56D	Ctrl	-0.22	6/6	3/18
S25V S26D Y31G E32Q S38A W56A	GP_Gibbs	0.92	6/6	0/18
S25V V29N W56N S62V	GP_Gen	-0.39	6/6	1/18
S25L S26P V29H W56N T59Q	GP_Gen	-0.14	6/6	1/18
S25C Q27F V29T K36S	Ctrl	0.97	6/6	0/18
Q27P W56Q	Ctrl	-0.05	6/6	0/18
S25L S26E V29E W56G	GP_Gen	0.36	6/6	0/18
Q27W V29W W56D	GP_HC	-0.42	6/6	0/18
S25F V29E W56D	GP_Gen	-0.51	6/6	1/18
S25L K36C W56N T59Q	GP_Gen	0.09	6/6	4/18
K36D Q95F	Ctrl	nd	0/6	1/18
Q27I V29Y K36P W56E	GP_HC	-0.09	6/6	0/18
S25I Y31F W56D	GP_HC	-0.08	6/6	2/18
S26L W56E S62D H98G	GP_HC	0.08	6/6	6/18
V29E Y31Q W56D	GP_HC	0.61	6/6	0/18
W56D Y97M H98P	Ctrl	0.18	6/6	0/18
S28Q W56S	Ctrl	0.71	6/6	1/18
Q27P V29Y Y31G S33K W56E	GP_HC	0.61	6/6	1/18
S25W S26P S28G W56G T59V	GP_HC	0.23	6/6	0/18
V29Q Q96F	Ctrl	2.04	1/6	0/18
S25A S28G W56G	GP_HC	0.10	6/6	3/18
S25F Q27D Y31L N35T W56N	GP_HC	-0.24	6/6	0/18
S26M S38N W56H S62D H98A	GP_HC	-0.26	6/6	1/18
L30T Q96A	Ctrl	nd	0/6	0/18
K24L Q27G V29Y R34P W56E	GP_HC	0.72	6/6	1/18
S25L V29E W56N E61M S62E	GP_Gen	-0.32	6/6	0/18
S25L S26D V29K W56N T59Q	GP_Gen	-0.19	6/6	1/18
K24F S25L S26E V29S W56N E61C	GP_Gibbs	-0.03	6/6	1/18
S25L S26P V29E W56G	GP_Gen	-0.04	6/6	1/18
S25F W56E E61L	GP_Gen	-0.01	6/6	1/18
S26G S28G W56G S103Y	GP_HC	0.67	6/6	1/18
S25L Y31P W56N	GP_Gen	-0.16	6/6	1/18
S25V T59E E61I Q96K	Ctrl	nd	0/6	2/18
S33E W56E	Ctrl	0.03	6/6	1/18
S28L S33T	Ctrl	nd	0/6	0/18
Q27P V29E R34H W56N E61M	GP_HC	-0.07	6/6	0/18
Y31M K36M W56D	GP_HC	0.36	6/6	0/18
S26L Q27W R34L W56H S62D	GP_HC	1.42	6/6	1/18
S26L W56H T59V S62D	GP_HC	-0.31	6/6	1/18
S25V W56E	Ctrl+GP_Gen	-0.20	12/12	0/36
N35M W56N S62M	Ctrl	0.38	6/6	0/18
S25W S26E L30M Y31G R34V W56N	GP_Gibbs	-0.01	6/6	1/18
S25L L30W W56N T59Q S62Q	GP_Gen	-0.30	6/6	3/18
S25L V29E L30P W56E	GP_Gen	0.89	6/6	0/18
Q27I V29Y L30E R34M W56N	GP_HC	0.18	6/6	1/18
L30G E32F	Ctrl	2.38	5/6	1/18
S38N T59V Y97C	Ctrl	nd	0/6	0/18
S25L V29N W56N S62W	GP_Gen	0.29	6/6	1/18
S25L V29M K36F W56N	GP_Gen	-0.14	6/6	0/18
S25V Q27F V29Y Y31L W56S	GP_HC	0.12	6/6	0/18
S25I Q27G V29E Y31E T59V S62E	GP_Gibbs	0.38	6/6	0/18
S25L L30E W56H E61C	GP_Gen	0.26	6/6	2/18
K24H Q27P K36D W56N	GP_HC	-0.07	6/6	0/18
K24I S25L V29M W56N E61W	GP_Gibbs	0.06	6/6	1/18
S25L Q27P V29W W56E	GP_Gen	-0.17	6/6	0/18
S26P L30P V39F W56G	Ctrl	0.82	6/6	0/18
S25L V29W W56N Q96S	GP_Gen	0.31	6/6	0/18
V29D R34A	Ctrl	1.28	6/6	4/18
S25T R99E	Ctrl	2.22	6/6	1/18
S25I R34M K36R S38A R99G	Ctrl	1.90	6/6	2/18
K36H N37P E61Y Q96C R99G	Ctrl	nd	0/6	0/18
S25L S26Q W56N T59Q E61L	GP_Gen	-0.10	6/6	2/18
S25F V29W S33D N35V W56G S58Q	GP_HC	-0.10	6/6	1/18
Q27F V29Y W56E S103M	GP_HC	0.90	6/6	0/18
R34L W56D L102E	Ctrl	1.64	2/6	0/18
Q27A L30E S33D W56H S62Q S103M	GP_Gibbs	0.91	6/6	2/18
K24N Y31E W56Q S58E E61S	Ctrl	0.57	6/6	2/18
Y97T	Ctrl	1.84	5/6	1/18
S25L S26A W56H S62D Q95K	GP_HC	2.34	1/6	0/18
S25P S26R S28Q V29T S33T S62E	Rand	1.99	3/6	0/18
S25F L30M W56E	GP_Gen	0.45	6/6	2/18
S25L S26Y V29Q W56N E61L	GP_Gen	-0.12	6/6	3/18
K24H Q27P L30A W56N S62T	GP_HC	0.56	6/6	2/18
S25Y S26L N35D W56H S62D	GP_HC	0.05	6/6	0/18
S25F S28W N35T K36S W56N	GP_HC	1.30	6/6	1/18
S33M R34G	Ctrl	2.11	6/6	2/18
S25L S26Q W56G T59Q E61L	GP_Gen	0.01	6/6	2/18
S25L Q27I V29G W56E	GP_HC	-0.23	6/6	0/18

Top 6 of the variants detected in all replicates, tightest first:

| changes | group | log10 Kd (nM), mean | seen in | control signals |
|---|---|---|---|---|
| S25F V29E W56D | GP_Gen | -0.51 | 6/6 | 1/18 |
| Q27W V29W W56D | GP_HC | -0.42 | 6/6 | 0/18 |
| S25V V29N W56N S62V | GP_Gen | -0.39 | 6/6 | 1/18 |
| S25L V29E W56N E61M S62E | GP_Gen | -0.32 | 6/6 | 0/18 |
| S26L W56H T59V S62D | GP_HC | -0.31 | 6/6 | 1/18 |
| S25L L30W W56N T59Q S62Q | GP_Gen | -0.30 | 6/6 | 3/18 |

The parent sequence was in this pool as ten entries: three were never detected, three once, and four in most replicates, with averages from 0.34 to 2.37. In the paper, a design with two or fewer of six values counts as a poor binder. The range of this assay differs from that of the first round, and the authors advise against merging the two. Nonspecific signal, from three strains lacking the peptide, appeared in 4% of pairings of all light chain designs, centred on 2.64 (5% of these signals below 1.59); values are not corrected for it. The control count says in how many pairings with the empty strains this scFv gave a signal. Some sequences occur more than once in the pool; their replicates are pooled.

The measurements come from Li et al. 2023 (doi:10.1038/s41467-023-39022-2) through the FLAb antibody collection.